pIC50: −log10 of the molar value.

Chains of the proteins cited; added tags and fusions are not shown.
UniProt P14902, whole entry: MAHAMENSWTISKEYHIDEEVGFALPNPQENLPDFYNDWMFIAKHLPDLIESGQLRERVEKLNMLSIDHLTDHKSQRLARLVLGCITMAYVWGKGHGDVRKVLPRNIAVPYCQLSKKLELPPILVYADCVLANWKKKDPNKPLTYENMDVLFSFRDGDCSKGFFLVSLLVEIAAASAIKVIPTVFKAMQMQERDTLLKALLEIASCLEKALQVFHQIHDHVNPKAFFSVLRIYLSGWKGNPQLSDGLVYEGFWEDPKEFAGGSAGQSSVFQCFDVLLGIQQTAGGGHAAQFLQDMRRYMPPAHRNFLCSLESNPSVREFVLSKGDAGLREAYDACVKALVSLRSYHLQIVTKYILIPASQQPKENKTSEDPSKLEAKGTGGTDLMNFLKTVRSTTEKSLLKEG

One experiment has as its target IDO1 (Homo sapiens, UniProt P14902). Description: IDO1 enzyme activity test (NFK Green). The settings on record: read-out: IDO IC50; 10 nM IDO1, 100 uM L-tryptophan, NFK green fluorescence. The procedure:
1. IDO1 Enzyme Activity Test Method (NFK Green)
Content of research: the inhibitory effect of the compound on the activity of IDO1 enzyme was examined.
IDO assay kit (NTRC, Cat. No. NTRC-hTDO-1K), DMSO (Sigma, Cat. No. D2650), 384-well plate_compound dilution plate (Greiner, Cat. No. 781280), 384-well plate_test plate (Perkin Elmer, Cat. No. 6007299)
10 nM IDO1 was incubated with compound or DMSO at 23° C. for 30 minutes, and L-type tryptophan was added at a final concentration of 100 uM and reacted for 1.5 hours. NFK green was added and incubated at 37° C. for 4 hours, and fluorescence signal data (excitation band, 400/25; emission band, 510/20) was corrected with Envision. Data analysis and mapping was conducted by XLfit5 software.
The test compounds and the reference compound LW3018 were finally tested at concentrations ranging from […] to 0.51 nM, 3-fold gradient dilution, 10 concentrations, and two replicate wells.

For the next experiment, the target named is IDO1 in Hela cells (Homo sapiens, UniProt P14902). In words: IDO cytology test (LC-MS), kynurenine in IFN-gamma-stimulated Hela cells. The conditions noted are these: read-out: Hela IC50, interferon gamma 100 ng/mL, 20 h, kynurenine by LC/MS. An excerpt: 2. IDO Cytology Test Method (LC-MS)
Content of research: the inhibitory effect of the compound on the activity of IDO1 in Hela cells was examined.
RPMI 1640 (phenol red free) medium (Invitrogen Cat. No. 11835030), fetal bovine serum (Invitrogen Cat. No. 10099141), penicillin and streptomycin (Invitrogen Gibco Cat. No. 15140-122), recombinant human interference γ (R&D system, Cat. No. 285-IF-100). 5% (w/v) trichloroacetic acid (Alfa Aesar Cat. No. A11156), DMSO (Sigma, Cat. No. D2650), 96-well plate_compound dilution plate (Axygen, Cat. No. WIPP02280), 96-well plate_test plate (Greiner, Cat. No. 655090)
The test compounds and the reference compound LW3018 were finally tested at concentrations ranging from […] to 0.76 nM, 3-fold gradient dilution, 9 concentrations, and two replicate wells.
Hela cells were plated in 96-well cell culture plates at a number of 40,000 cells per well, and incubated with RPMI 1640 containing 10% fetal bovine serum for 5-6 hours. The diluted test compound and recombinant human interferon gammaa (final concentration at 100 ng/mL) were added to activate IDO1 expression. The cells were cultured in a 37° C. cell incubator which was enriched with 5% carbon dioxide for 20 hours, and the reaction was stopped with 5% trichloroacetic acid and incubated for 30 minutes at 50° C. […]

As to `CS(=N)(=O)NCCNc1nonc1C(=NO)Nc1ccc(F)c(Br)c1` (single isomer, unassigned) [LW105-1-18], the pIC50 was 7.64 on IDO1 and 8.12 at IDO1 in Hela cells. For `CS(=N)(=O)NCCNc1nonc1C(=NO)Nc1ccc(F)c(Br)c1` (single isomer, unassigned) [LW105-1-19], at IDO1 in Hela cells, the pIC50 was 8.17.
